Results published in patent KR20210021153A.

Chains of the proteins cited; added tags and fusions are not shown. Residues count along the entry.
UniProt P04141, 18-144 limits assumed: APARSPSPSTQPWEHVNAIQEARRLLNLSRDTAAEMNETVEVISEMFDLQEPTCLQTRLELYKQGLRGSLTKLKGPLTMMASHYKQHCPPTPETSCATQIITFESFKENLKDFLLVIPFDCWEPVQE

Molecular target: 과립구-매크로파지 콜로니-자극 인자 (GM-CSF) (human) (UniProt P04141)
Experiment: cell-based or functional assay

Question: With MOR103 (antibody) as the substance, how does the 억제: TF-1 세포 증식, STAT5 포스포릴화, 다형핵 호중구 (PMN) 이동, CD11b의 PMN 상향-조절, MHC II의 단핵구 상향-조절, 호산구 생존율 (GM-CSF 1 ng/ml 이하) read?
Answer: 0.2 µg/mL
